Data published in patent US10098888B2, “Substituted benzene compounds” (Epizyme, Inc., priority 2012, dated 2018).

What was measured:
WSU-DLCL2 cells = test: Cell Proliferation Analysis (WSU-DLCL2, Cell Titer Glo); type: cell-based; conditions: Homo sapiens, WSUDLCL2, 144 h, 6 days
[1] = tested on: H3K27me3 in WSU-DLCL2 cells; test: WSU-DLCL2 Methylation Assay (H3K27me3 ELISA); type: cell-based; conditions: Homo sapiens, WSUDLCL2, 96 hours incubation

SMILES: CCN(c1cc(C#CC2CCN(C)CC2)cc(C(=O)NCc2c(C)cc(C)[nH]c2=O)c1C)C1CCOCC1 [Compound 105, N-((4,6-Dimethyl-2-oxo-1,2-dihydropyridin-3-yl)methyl)-3-(ethyl(tetrahydro-2H-pyran-4-yl)amino)-2-methyl-5-((1-methylpiperidin-4-yl)ethynyl)benzamide]
- IC50 (WSU-DLCL2 cells): 325 nM
- IC50 [1]: 58 to 150 nM
